Drawing on ChEMBL document CHEMBL2034871, “First-in-class, dual-action, 3,5-disubstituted indole derivatives having human nitric oxide synthase (nNOS) and norepinephrine reuptake inhibitory (NERI) activity for the treatment of neuropathic pain” (J Med Chem, 2012), this text covers IC50 for five compounds.

Amino acid sequences for entries named in this document (tags omitted).
UniProt P29475, whole entry: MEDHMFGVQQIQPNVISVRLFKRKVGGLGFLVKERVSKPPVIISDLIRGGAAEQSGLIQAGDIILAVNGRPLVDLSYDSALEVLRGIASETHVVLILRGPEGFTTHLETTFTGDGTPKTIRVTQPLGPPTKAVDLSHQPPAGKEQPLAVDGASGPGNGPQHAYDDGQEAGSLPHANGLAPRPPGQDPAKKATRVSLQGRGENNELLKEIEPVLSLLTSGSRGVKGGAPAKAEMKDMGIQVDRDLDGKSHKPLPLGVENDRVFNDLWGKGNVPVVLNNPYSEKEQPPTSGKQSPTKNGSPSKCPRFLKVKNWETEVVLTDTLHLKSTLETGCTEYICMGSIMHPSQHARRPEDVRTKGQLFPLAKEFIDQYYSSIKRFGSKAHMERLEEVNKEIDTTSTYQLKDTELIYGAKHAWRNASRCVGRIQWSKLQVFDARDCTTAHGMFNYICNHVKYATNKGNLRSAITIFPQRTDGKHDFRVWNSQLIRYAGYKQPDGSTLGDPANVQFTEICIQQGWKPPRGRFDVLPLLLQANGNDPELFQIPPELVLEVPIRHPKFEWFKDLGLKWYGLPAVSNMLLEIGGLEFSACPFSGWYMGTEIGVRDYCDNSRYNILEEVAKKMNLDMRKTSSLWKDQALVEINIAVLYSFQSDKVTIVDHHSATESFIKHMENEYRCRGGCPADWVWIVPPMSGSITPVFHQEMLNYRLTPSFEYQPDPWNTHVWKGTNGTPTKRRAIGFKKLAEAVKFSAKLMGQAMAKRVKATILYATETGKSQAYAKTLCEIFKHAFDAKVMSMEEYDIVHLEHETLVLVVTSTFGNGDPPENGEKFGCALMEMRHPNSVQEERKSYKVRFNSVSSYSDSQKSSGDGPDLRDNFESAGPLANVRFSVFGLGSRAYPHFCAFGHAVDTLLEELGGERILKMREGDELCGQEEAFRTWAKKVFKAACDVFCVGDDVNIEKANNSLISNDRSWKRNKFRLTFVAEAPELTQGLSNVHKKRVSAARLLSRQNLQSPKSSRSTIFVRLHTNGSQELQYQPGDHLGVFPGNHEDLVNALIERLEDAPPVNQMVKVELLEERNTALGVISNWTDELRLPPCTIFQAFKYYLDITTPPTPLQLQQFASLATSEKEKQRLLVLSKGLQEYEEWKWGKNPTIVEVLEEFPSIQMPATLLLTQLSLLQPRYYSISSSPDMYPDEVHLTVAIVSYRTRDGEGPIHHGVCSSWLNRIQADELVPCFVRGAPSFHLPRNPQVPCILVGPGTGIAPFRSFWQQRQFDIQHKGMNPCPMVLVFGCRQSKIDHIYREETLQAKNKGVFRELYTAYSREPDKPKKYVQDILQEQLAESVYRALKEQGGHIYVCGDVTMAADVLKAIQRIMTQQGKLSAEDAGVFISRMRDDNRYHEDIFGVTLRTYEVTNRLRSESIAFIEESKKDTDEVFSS

For one assay, the target named is T1, Nitric oxide synthase 3 (Homo sapiens, UniProt P29474).
T1 sequence (P29474 whole entry): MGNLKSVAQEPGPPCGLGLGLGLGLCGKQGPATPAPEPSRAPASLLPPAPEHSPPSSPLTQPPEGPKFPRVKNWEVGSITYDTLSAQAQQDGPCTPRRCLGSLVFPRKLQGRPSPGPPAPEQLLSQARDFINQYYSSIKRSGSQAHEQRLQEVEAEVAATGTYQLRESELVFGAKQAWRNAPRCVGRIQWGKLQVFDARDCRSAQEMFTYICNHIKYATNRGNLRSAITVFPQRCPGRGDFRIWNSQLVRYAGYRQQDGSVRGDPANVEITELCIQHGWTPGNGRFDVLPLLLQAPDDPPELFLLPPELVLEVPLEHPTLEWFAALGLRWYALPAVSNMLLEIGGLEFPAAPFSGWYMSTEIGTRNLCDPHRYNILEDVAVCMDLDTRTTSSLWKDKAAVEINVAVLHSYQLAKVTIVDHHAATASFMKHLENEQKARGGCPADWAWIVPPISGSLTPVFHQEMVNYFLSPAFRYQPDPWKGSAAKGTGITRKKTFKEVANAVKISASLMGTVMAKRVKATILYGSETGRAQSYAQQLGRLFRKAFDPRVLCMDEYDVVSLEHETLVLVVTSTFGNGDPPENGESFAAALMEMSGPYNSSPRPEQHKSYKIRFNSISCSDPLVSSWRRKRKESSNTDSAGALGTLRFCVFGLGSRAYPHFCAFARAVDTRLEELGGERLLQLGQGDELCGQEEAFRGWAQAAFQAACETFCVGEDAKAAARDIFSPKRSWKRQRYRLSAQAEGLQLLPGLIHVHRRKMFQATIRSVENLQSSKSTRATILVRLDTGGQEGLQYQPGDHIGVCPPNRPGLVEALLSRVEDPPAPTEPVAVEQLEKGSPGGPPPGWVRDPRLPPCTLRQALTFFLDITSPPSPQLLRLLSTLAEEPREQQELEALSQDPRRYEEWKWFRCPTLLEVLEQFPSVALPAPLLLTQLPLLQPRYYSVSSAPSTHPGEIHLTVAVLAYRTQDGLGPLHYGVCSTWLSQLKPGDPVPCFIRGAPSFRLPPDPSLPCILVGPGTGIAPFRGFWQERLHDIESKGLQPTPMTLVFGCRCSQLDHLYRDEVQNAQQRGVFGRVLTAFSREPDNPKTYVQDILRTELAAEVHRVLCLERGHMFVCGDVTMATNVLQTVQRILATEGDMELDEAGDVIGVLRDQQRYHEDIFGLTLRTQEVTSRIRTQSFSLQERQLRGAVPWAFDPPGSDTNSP
As to the kind of experiment: Inhibition of human eNOS expressed in baculovirus-infected insect sf9 cells assessed as conversion of [3H]-L-arginine to [3H]-L-citrulline preincubated for 15 mins with compound measured after 45 mins by scintillation counting.

The target in the next assay is Nitric oxide synthase 1 (Homo sapiens, UniProt P29475). As to the kind of experiment: Inhibition of human nNOS expressed in baculovirus-infected insect sf9 cells assessed as conversion of [3H]-L-arginine to [3H]-L-citrulline preincubated for 15 mins with compound measured after 45 mins by scintillation counting.

pIC50: −log10 of the molar value.

On to `CCN[C@H]1CC[C@@H](c2c[nH]c3ccc(NC(=N)c4cccs4)cc32)CC1`, for which the pIC50 (in general, the negative decadic logarithm of the IC50, by convention in mol/L) at Nitric oxide synthase 3 is 4.72.
On to `CN[C@H]1CCC[C@@H](c2c[nH]c3ccc(NC(=N)c4cccs4)cc23)C1` (racemic), for which the pIC50 on Nitric oxide synthase 1 is 6.31.
For the compound `CN[C@H]1CCC[C@H](c2c[nH]c3ccc(NC(=N)c4cccs4)cc23)C1` (racemic), at Nitric oxide synthase 1, the negative logarithm of the IC50 (pIC50) is 6.52.
On to `CCN[C@H]1CCC[C@@H](c2c[nH]c3ccc(NC(=N)c4cccs4)cc23)C1` (racemic), for which the pIC50 on Nitric oxide synthase 3 was 4.49; on Nitric oxide synthase 1 it was 6.14.
In the same order, the values of `CCN[C@H]1CCC[C@H](c2c[nH]c3ccc(NC(=N)c4cccs4)cc23)C1` (racemic) are 4.96 and 6.70.
